Active and inactive are the calls of the source. The calls are words filed in the database; no cut-off is given here.
Assays:
Format in all cases: cell-based
[1] = biological target: T1, Keap1/Nrf2 (Homo sapiens) (UniProt Q16236+Q14145); assay: Inhibition of Keap1/Nrf2 interaction in human HaCaT cells assessed as increase in NRF2 nuclear accumulation at 10 uM incubated for 24 hrs by immunoblot assay
[2] = biological target: T1, Keap1/Nrf2 (Homo sapiens); assay: Inhibition of Keap1/Nrf2 interaction in human HaCaT cells assessed as increase in HMOX1 gene expression at 10 uM incubated for 6 hrs by qPCR method
[3] = biological target: T1, Keap1/Nrf2 (Homo sapiens); assay: Inhibition of Keap1/Nrf2 interaction in human HaCaT cells assessed as increase in NQO1 protein expression at 10 uM incubated for 6 hrs by Western blot method
Outline: (§1)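 HaCaT cells in DMEM, 10% FBS, 1% antibiotics, treated at 70–80% confluence with 10 μM compound or DMSO for 6 or 24 h in complete medium. Lysates (~40 μg protein) resolved by 10% SDS-PAGE, immunoblotted for NQO1; bands quantified against GAPDH, vehicle set to one arbitrary unit.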

Protein sequences, listed by entry. Tags and fused reporters are not part of them.
UniProt Q16236, whole entry, looked up: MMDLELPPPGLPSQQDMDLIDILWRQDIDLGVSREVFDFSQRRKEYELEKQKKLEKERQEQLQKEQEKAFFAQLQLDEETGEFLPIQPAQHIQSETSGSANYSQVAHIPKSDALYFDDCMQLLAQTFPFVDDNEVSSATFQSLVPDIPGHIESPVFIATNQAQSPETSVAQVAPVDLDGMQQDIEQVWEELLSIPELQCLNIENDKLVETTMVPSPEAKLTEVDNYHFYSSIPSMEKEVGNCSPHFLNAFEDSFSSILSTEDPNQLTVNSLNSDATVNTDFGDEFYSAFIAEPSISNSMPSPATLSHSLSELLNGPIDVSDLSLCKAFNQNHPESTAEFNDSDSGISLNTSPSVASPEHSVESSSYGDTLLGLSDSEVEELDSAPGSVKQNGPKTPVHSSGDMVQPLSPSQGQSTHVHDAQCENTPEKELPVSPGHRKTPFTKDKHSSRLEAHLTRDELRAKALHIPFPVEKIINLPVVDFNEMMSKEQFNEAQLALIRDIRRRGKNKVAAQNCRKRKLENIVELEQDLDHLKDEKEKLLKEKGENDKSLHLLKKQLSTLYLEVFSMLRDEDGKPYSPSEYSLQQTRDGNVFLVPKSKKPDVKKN
UniProt Q14145, whole entry, looked up: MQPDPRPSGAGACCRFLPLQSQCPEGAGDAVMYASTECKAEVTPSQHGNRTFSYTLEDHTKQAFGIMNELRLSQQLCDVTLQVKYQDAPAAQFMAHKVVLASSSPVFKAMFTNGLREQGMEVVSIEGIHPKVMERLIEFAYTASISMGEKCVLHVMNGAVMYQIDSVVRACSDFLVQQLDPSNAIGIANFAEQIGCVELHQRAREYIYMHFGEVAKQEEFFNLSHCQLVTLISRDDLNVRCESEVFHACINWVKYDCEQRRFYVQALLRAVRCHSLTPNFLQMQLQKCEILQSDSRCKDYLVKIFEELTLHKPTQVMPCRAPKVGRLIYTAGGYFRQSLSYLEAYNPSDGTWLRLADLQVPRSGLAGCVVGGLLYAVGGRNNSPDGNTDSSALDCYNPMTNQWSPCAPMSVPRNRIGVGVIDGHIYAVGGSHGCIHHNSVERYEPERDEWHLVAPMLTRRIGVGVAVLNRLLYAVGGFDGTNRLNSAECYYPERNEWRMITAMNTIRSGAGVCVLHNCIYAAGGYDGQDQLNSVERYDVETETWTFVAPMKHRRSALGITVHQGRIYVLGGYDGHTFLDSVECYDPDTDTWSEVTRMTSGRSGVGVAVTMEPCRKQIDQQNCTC

[4] = biological target: T1, Keap1/Nrf2 (Homo sapiens); assay: Inhibition of Keap1/Nrf2 interaction in human HaCaT cells assessed as increase in NQO1 gene expression at 10 uM incubated for 24 hrs by qPCR method
[5] = biological target: T1, Keap1/Nrf2 (Homo sapiens); assay: Inhibition of Keap1/Nrf2 interaction in human HaCaT cells assessed as increase in GCLM gene expression at 10 uM incubated for 6 hrs by qPCR method
[6] = biological target: T1, Keap1/Nrf2 (Homo sapiens); assay: Inhibition of Keap1/Nrf2 interaction in human HaCaT cells assessed as increase in NRF2 nuclear accumulation at 10 uM incubated for 6 hrs by immunoblot assay
[7] = biological target: T1, Keap1/Nrf2 (Homo sapiens); assay: Inhibition of Keap1/Nrf2 interaction in human HaCaT cells assessed as increase in NQO1 protein expression at 10 uM incubated for 24 hrs by Western blot method; outline: as §1
[8] = biological target: T1, Keap1/Nrf2 (Homo sapiens); assay: Inhibition of Keap1/Nrf2 interaction in human HaCaT cells assessed as increase in GCLC gene expression at 10 uM incubated for 6 hrs by qPCR method

In the case of `COc1ccc(S(=O)(=O)N(CC(=O)O)c2cnc(N(CC(=O)O)S(=O)(=O)c3ccc(OC)cc3)c3ccccc23)cc1`, the fold change (FC) [1] is reported as 2, the inhibition [2] is reported as “Active” and the inhibition [3] is reported as “Active”. For the same molecule, the inhibition [4] was “Active”, the inhibition [5] was “Active” and the fold change (FC) [6] was 2. The inhibition [7] was “Active” and the inhibition [8] was “Active”.
